System: androgen receptor (AR)
Experiment: AR expression in LNCaP CPT1A-KD clones treated with enzalutamide
Assay type: cell-based, human
Details: LNCaP CPT1AKD clones, enzalutamide over 2 days

SMILES: CNC(=O)c1ccc(N2C(=S)N(c3ccc(C#N)c(C(F)(F)F)c3)C(=O)C2(C)C)cc1F [enzalutamide]
- AR full length and ARv7 variant expression: increase in AR full length and ARv7 variant

From patent US20180318263A1, “TREATMENT OF PROSTATE CANCER CELLS WITH FAT OXIDATION INHIBITORS AND ENZALUTAMIDE” (The Regents of the University of Colorado, a body corporate, priority 2016, published 2018)
